Reference: publication PMC11944851, “Computationally Guided Design, Synthesis, and Evaluation of Novel Non-Hydroxamic Histone Deacetylase Inhibitors, Based on N-Trifluoroacetamide as a Zinc-Binding Group, Against Breast Cancer” (Pharmaceuticals, 2025)

Key:
MCF-7 cells = assay: MTT cell viability, MCF-7; type: cell-based; conditions: ratio of IC50
Protocol: The results confirmed the cytotoxic activity of these compounds also in this cell line.
(§1) The BC cell lines MCF-7 and MDA-MB-231 were cultured in high-glucose DMEM medium with phenol red, supplemented with 7% and 10% fetal bovine serum (Gibco, Waltham, MA, USA), respectively, 1% Penicillin/Streptomycin (10,000 U/mL, Gibco, Waltham, MA, USA), and 1% non-essential amino acids (Gibco, Waltham, MA, USA). Cell cultures were maintained in a temperature-controlled incubator at 37 °C and 5% CO2 atmosphere. For the 72 h assays with MDA-MB-231, 1.8 x 10³ cells/well were seeded in 100 µL of medium.
(§2) The 3-(4,5-dimethylthiazol-2-yl)-2,5-diphenyl tetrazolium bromide assay was used to evaluate the effect of the designed compounds on cell viability. These compounds were initially dissolved in DMSO (dimethyl sulfoxide) as stock solutions at 150 mM. […] The optical density of the wells was measured at 550 nm using an ELISA reader (MultiSkan, Thermo Scientific, Waltham, MA, USA). Finally, cell viability was expressed as a percentage relative to the negative control (untreated and 0.46% DMSO).
(§3) Cytotoxicity data were analyzed using one-way ANOVA to evaluate differences between the treated groups and the negative control (DMSO). […]

MDA-MB-231 cells = assay: MTT cell viability, MDA-MB-231; type: cell-based; conditions: ratio of IC50
Protocol: […] This effect is undoubtedly related to the mechanism of enzyme inhibition.
as §1, §2, §3

O=C(CCCCCCC(=O)Nc1ccccc1)NO [SAHA, suberoylanilide hydroxamic acid, reference compound]
Selectivity Index MCF-10A/ MCF-7 (MCF-7 cells): 0.71 | Selectivity Index MCF-10A/ MDA-MB-231 (MDA-MB-231 cells): 0.86
